Experimental data: PubChem BioAssay (NCATS)
The entries are a selection whose mix differs from that of the whole data set. Records with an inconclusive call do not appear. Calls of active or inactive are those of the source. Unless noted, the call rests on the fitted dose curve; in most records, active means well fitted curve in the direction sought with a large enough effect; inconclusive means small, poorly fitted or top-dose-only effect, or another doubt; inactive means no such curve, though single readings can be large; an effect the other way counts as inactive or inconclusive.

Sequences of proteins named here, by UniProt entry; tags and fusion partners are left off. A change or cut given only in a name is not applied to a line headed by its entry.
UniProt Q99828: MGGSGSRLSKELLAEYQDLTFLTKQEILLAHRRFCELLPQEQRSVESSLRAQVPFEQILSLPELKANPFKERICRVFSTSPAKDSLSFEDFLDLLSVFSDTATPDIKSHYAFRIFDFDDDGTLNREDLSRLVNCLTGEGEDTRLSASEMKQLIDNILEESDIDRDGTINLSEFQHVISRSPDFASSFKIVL
UniProt P08684, whole entry, looked up: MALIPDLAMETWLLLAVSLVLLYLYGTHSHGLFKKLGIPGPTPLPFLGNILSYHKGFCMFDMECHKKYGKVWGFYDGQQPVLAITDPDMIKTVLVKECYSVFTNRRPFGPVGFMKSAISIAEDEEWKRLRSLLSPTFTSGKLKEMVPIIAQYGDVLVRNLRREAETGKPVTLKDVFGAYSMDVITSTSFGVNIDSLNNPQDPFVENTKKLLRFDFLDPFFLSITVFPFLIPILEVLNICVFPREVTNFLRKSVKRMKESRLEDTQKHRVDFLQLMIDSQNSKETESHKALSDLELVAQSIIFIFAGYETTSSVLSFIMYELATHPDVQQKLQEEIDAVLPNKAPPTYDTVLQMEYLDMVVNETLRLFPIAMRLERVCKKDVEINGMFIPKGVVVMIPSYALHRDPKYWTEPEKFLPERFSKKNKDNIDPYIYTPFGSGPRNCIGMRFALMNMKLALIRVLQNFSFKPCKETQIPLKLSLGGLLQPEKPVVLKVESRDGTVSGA
UniProt P11712, whole entry, looked up: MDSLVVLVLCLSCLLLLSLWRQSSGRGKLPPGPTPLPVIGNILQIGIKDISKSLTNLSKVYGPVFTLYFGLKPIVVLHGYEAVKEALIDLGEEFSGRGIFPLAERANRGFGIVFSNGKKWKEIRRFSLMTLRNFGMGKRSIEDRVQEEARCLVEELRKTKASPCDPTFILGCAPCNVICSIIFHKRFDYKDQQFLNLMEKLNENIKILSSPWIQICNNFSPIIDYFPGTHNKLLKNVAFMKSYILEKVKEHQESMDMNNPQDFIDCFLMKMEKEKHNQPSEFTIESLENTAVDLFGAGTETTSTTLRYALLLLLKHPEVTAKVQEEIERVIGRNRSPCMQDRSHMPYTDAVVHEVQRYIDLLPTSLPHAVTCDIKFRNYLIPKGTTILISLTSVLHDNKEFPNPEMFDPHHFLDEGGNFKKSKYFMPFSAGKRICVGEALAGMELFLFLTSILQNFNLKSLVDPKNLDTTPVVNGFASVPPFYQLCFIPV

Experiments:
[1] = P-glycoprotein substrates identified in KB-8-5-11 adenocarcinoma cell line, qHTS therapeutic library screen (AID 1346987); details: KB-8-5-11 (P-gp overexpressing) viability, CellTiter-Glo, 72 h; at 44.5 µM (top of the series) unless noted; further: on the % scale 0 is the no-effect control and ±100 the full control effect; nearly all actives have a fitted effect of over 65% in size
[2] = target: Calcium and integrin-binding protein 1 (Homo sapiens) (UniProt Q99828); experiment: Primary qHTS for Identification of Calcium Integrin Binding Protein 1 (CIB1) Competitor (AID 1508620); details: CIB1-GST / FITC-alphaIIb peptide fluorescence polarization; at 114 µM (top of the series) unless noted;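 further: GST tagged CIB1 binding a fluorescein labelled alphaIIb integrin peptide tracer; top concentration of the series differs between compounds; on the % scale 0 is the no-effect control and ±100 the full control effect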
[3] = target: Cytochrome P450 3A4 (Homo sapiens) (UniProt P08684); experiment: Cytochrome P450 family 3 subfamily A member 4 (CYP3A4) small molecule antagonists: luciferase qHTS assay (AID 1645841; active means well fitted curve in the direction sought with a large enough effect in the repeat runs; an effect the other way counts as inactive or inconclusive; further: nearly all actives have a fitted effect of over 45% in size)
[4] = target: Cytochrome P450 2C9 (Homo sapiens) (UniProt P11712); experiment: Cytochrome P450 family 2 subfamily C member 9 (CYP2C9) small molecule antagonists: luciferase qHTS assay (AID 1645842; active means well fitted curve in the direction sought with a large enough effect in the repeat runs; an effect the other way counts as inactive or inconclusive; further: on the % scale 0 is the no-effect control and ±100 the full control effect; nearly all actives have a fitted effect of over 55% in size); details: P450-Glo CYP2C9 enzyme assay, luciferin luminescence; at 57.4 µM (top of the series) unless noted
Summary of the method: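 Luminescence, after 20 min with luciferin detection reagent, reflected CYP2C9 turnover during a 1 h NADPH-driven reaction at 37C. Enzyme-substrate mix contained 0.4% bovine serum albumin and was preincubated with compound 10 min at room temperature.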

[5] = target: Luciferin 4-monooxygenase (Photinus pyralis) (UniProt P08659); experiment: Primary firefly luciferase (FLuc) qHTS assay for identification of artifact compounds. (AID 1845220); details: purified firefly luciferase, luminescence, 5 min; activity change, negative = inhibition: at 54.1 µM (top of the series);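 further: plate controls were DMSO vehicle for no effect and no enzyme for full effect; nearly all actives have a fitted effect of over 60% in size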
Summary of the method: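 FLuc 10 nM; luciferin 10 uM; ATP 10 uM; Tris-acetate pH 7.6, Mg-acetate 10 mM; 15 min RT preincubation; 5 min reaction; luminescence.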

[6] = tested on: Nanoluciferase (engineered Oplophorus gracilirostris luciferase); experiment: Primary Nanoluciferase (NLuc) qHTS assay for identification of artifact compounds. (AID 1845222); details: NLuc-conditioned medium, Nano-Glo luminescence, 5 min; at 54.1 µM (top of the series);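 further: NLuc secreted into diluted conditioned medium of S16 cells; 0% = DMSO and -100% = no enzyme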
Summary of the method: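 NLuc from S16 cell medium (1:55) plus test compounds, 15 min, room temperature. Luminescence after Nano-Glo (1:100) addition, 5 min.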

[7] = Primary redox qHTS assay for identification of artifact compounds. (AID 1845223); details: Amplex Red/HRP redox cycling with DTT, fluorescence; at 53.8 µM (top of the series);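 further: 0% = DMSO and 100% = reference compound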
Summary of the method: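 Amplex Red (25 uM) and HRP (250 mU/mL) in HBSS, with compounds for 15 min, then 250 uM DTT for 30 min, room temperature, dark. Fluorescence 525/598 nm read; normalized to DMSO and 10 uM DA3003; Hill fit.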

[8] = tested on: CRL-7250; experiment: Cytotoxic Profiling of Annotated Libraries Using Quantitative High-Throughput Screening (AID 1296008); details: Five cell lines viability, CellTiter-Glo ATP luminescence, 48-72 h; stronger effect = lower value; further: on the % scale 0 is the no-effect control and ±100 the full control effect; nearly all actives have a fitted effect of over 60% in size
[9] = tested on: HEK293; experiment: as above; details: Five cell lines viability, CellTiter-Glo ATP luminescence, 48-72 h; max response: stronger effect = lower value
[10] = tested on: KB-3-1; experiment: as above; details: Five cell lines viability, CellTiter-Glo ATP luminescence, 48-72 h, stronger effect = lower value
[11] = tested on: NIH3T3; experiment: as above; details: Five cell lines viability, CellTiter-Glo ATP luminescence, 48-72 h; stronger effect = lower value
[12] = tested on: C33A; experiment: Primary qHTS to identify gynecologic anti-cancer compounds using libraries of approved drugs and bioactive compounds (AID 1345084); details: Gynecologic cancer cell panel viability, ATPlite luminescence, 48 h; at 57.5 µM (top of the series) unless noted; further: on the % scale 0 is the no-effect control and ±100 the full control effect; nearly all actives have a fitted effect of over 55% in size
Summary of the method: (§1)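 ATP-based viability (ATPlite), 1,000 cells/well, 16 h pre-incubation, 48 h compound at 37 C, 5% CO2, 15 min RT before read.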

[13] = tested on: CAOV3; experiment: as above; details: Gynecologic cancer cell panel viability, ATPlite luminescence, 48 h; at 57.5 µM (top of the series) unless noted
Summary of the method: as §1

[14] = tested on: CASKI; experiment: as above; details: Gynecologic cancer cell panel viability, ATPlite luminescence, 48 h; at 57.5 µM (top of the series) unless noted
Summary of the method: as §1

[15] = tested on: Es-2; experiment: as above; details: Gynecologic cancer cell panel viability, ATPlite luminescence, 48 h; at 57.5 µM (top of the series) unless noted
Summary of the method: as §1

[16] = tested on: HeLa; experiment: as above; details: Gynecologic cancer cell panel viability, ATPlite luminescence, 48 h; at 57.5 µM (top of the series) unless noted
Summary of the method: as §1

[17] = tested on: Hek293T; experiment: as above; details: Gynecologic cancer cell panel viability, ATPlite luminescence, 48 h, control line for the selectivity index; at 57.5 µM (top of the series) unless noted
Summary of the method: as §1

[18] = tested on: JEG-3; experiment: as above; details: Gynecologic cancer cell panel viability, ATPlite luminescence, 48 h; at 57.5 µM (top of the series) unless noted
Summary of the method: as §1

[19] = tested on: OV90; experiment: as above; details: Gynecologic cancer cell panel viability, ATPlite luminescence, 48 h; at 57.5 µM (top of the series) unless noted
Summary of the method: as §1

[20] = tested on: SKOV3; experiment: as above; details: Gynecologic cancer cell panel viability, ATPlite luminescence, 48 h; at 57.5 µM (top of the series) unless noted
Summary of the method: as §1

[21] = tested on: Tov-21-G; experiment: as above; details: Gynecologic cancer cell panel viability, ATPlite luminescence, 48 h; at 57.5 µM (top of the series) unless noted
Summary of the method: as §1

[22] = tested on: Tov112D; experiment: as above; details: Gynecologic cancer cell panel viability, ATPlite luminescence, 48 h; at 57.5 µM (top of the series) unless noted
Summary of the method: as §1

O=C(O[C@H]1CN2CCC1CC2)C1NCc2ccccc2[C@@H]1c1ccccc1 (some centres not stated)
inactive: activity change, negative = cytotoxicity [1] -28% | activity change, negative = inhibition [2] 0.439% | Potency [3] | activity change, negative = inhibition [4] 3.13% | activity change, negative = inhibition [5] -30% | activity, negative = inhibition [6] -15.3% | redox activity (% of DA3003) [7] 19.8% | max response [8] -3.21% | max response [9] -23.8% | max response [10] -16.3% | max response [11] -5.14% | activity change, negative = cytotoxicity [12] -2.37% | activity change, negative = cytotoxicity [13] 0.516% | activity change, negative = cytotoxicity [14] 13% | activity change, negative = cytotoxicity [15] 1.09% | activity change, negative = cytotoxicity [16] -1.44% | activity change, negative = cytotoxicity [17] -7.47% | activity change, negative = cytotoxicity [18] -1.59% | activity change, negative = cytotoxicity [19] 2.88% | activity change, negative = cytotoxicity [20] 24.7% | activity change, negative = cytotoxicity [21] 3.64% | activity change, negative = cytotoxicity [22] -1.64%
